This is a selection; strong and weak results do not stand in their true shares. Some salts or complexes appear as unconnected parts, following the source record. Activity calls are given as the source filed them.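 The calls were made as follows: active = binding more than 3 SD below its plate's average and above zero; inconclusive = below that plate limit but binding exactly zero; inactive = the rest.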
molecular target: Desmoglein-3 (Homo sapiens) (UniProt P32926); assay: inhibitors of pemphigus antibody binding to DSG3, primary screen, biochemical, bead-based, flow cytometry, scFv-GFP (AID 588358); conditions: DSG3-coupled beads, scFv-anti-DSG3-GFP binding, at 10 µM, active compounds read low;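 also: hits lower antibody fragment binding to DSG3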

By UniProt entry, the sequences of proteins in these tests, tags left out.
UniProt P32926, whole entry, looked up: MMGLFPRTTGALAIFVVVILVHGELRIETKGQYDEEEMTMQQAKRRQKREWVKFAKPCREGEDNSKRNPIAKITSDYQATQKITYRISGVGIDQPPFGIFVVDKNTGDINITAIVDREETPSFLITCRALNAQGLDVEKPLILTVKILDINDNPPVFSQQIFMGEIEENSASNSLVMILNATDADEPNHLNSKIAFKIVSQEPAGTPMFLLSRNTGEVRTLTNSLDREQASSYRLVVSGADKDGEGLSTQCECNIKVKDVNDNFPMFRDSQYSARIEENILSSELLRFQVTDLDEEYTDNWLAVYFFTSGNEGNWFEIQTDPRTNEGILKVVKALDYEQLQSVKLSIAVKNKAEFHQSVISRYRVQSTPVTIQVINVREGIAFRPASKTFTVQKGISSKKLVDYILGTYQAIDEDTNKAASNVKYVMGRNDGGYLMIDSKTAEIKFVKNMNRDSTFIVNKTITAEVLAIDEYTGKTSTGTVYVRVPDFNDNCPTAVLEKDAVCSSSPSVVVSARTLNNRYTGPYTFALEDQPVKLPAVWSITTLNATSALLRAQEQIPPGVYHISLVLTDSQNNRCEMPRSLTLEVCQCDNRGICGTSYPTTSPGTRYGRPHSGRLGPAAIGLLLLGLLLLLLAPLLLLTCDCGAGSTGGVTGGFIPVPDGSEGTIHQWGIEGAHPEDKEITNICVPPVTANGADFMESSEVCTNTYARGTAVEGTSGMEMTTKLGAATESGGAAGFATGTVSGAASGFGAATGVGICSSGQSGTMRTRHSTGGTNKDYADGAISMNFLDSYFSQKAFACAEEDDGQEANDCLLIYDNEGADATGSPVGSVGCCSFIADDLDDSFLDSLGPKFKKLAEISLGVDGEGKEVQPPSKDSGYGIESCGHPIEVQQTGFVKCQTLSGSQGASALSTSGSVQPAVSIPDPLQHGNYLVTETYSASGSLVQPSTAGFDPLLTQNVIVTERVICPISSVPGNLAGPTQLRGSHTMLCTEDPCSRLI

Structure (SMILES)	binding (percent of control)
COc1ccc(OP(C)(=O)Nc2cccc(F)c2)cc1 (stereo unspecified)	inactive: 102%
COc1ccccc1OP(C)(=O)Nc1cc(Cl)ccc1C (stereo unspecified)	inactive: 104%
CCOC(=O)c1ccc(NP(C)(=O)Oc2ccccc2)cc1 (stereo unspecified)	inactive: 102%
Cc1ccc(NP(C)(=O)Oc2ccccc2)c(C)c1 (stereo unspecified)	inactive: 102%
COc1ccccc1OP(C)(=O)Nc1ccc(C)cc1 (stereo unspecified)	inactive: 102%
Cc1cccc(C)c1OP(C)(N)=O (stereo unspecified)	inactive: 73%
CC(C)(C)c1ccc(OP(C)(=O)Nc2ccc(SC(F)(F)F)cc2)cc1 (stereo unspecified)	inactive: 90.5%
O=[N+]([O-])c1ccc2c(c1)C=Nc1ccccc1O2	inactive: 93.7%
O=[N+]([O-])c1cc([N+](=O)[O-])c(Nc2cccnc2)c([N+](=O)[O-])c1	inactive: 107%
CCN(CC)CCCOC(=O)C(O)(c1ccccc1)c1ccccc1	inactive: 101%
CP(=O)(Nc1ccccn1)Oc1ccc(Cl)cc1 (stereo unspecified)	inactive: 89.1%
CCOP(C)(=S)SCC(=O)NC(C)C(=O)O (stereo unspecified)	inactive: 106%
CCOC(=O)c1ccc(NP(C)(=O)Oc2ccc(OC)cc2)cc1 (stereo unspecified)	inactive: 109%
O=[N+]([O-])c1cc([N+](=O)[O-])c(O)c([N+](=O)[O-])c1.c1ccc(Oc2ccncc2)cc1	inactive: 105%
Cc1cc(C)cc(OP(C)(=O)Nc2ccc(SC(F)(F)F)cc2)c1 (stereo unspecified)	inactive: 99.1%
CP(=O)(NC(=O)Nc1ccccc1)Oc1ccccc1 (stereo unspecified)	inactive: 100%
CCc1ccc(OP(C)(=O)N2CCN(c3ccc([N+](=O)[O-])cc3)CC2)cc1 (stereo unspecified)	inactive: 103%
CP(=O)(Oc1ccccc1)OC(c1ccccc1)C(F)(F)F (stereo unspecified)	inactive: 99.2%
Cc1ccc(Nc2c([N+](=O)[O-])cc([N+](=O)[O-])cc2[N+](=O)[O-])cc1	inactive: 94.4%

Structure (SMILES)	binding (percent of control)
Cc1cccc(C)c1OP(C)(=O)Nc1ccc(SC(F)(F)F)cc1 (stereo unspecified)	inactive: 111%
CP(=O)(Nc1ccc(SC(F)(F)F)cc1)Oc1ccc(Cl)cc1 (stereo unspecified)	inactive: 98%
COc1ccccc1OP(C)(=O)Nc1ccccc1 (stereo unspecified)	inactive: 106%
CP(=O)(Nc1ccccc1Br)Oc1ccccc1 (stereo unspecified)	inactive: 98%
CP(=S)(Nn1cnnc1)Oc1ccccc1 (stereo unspecified)	inactive: 103%
CCCOc1ccc(NP(C)(=O)Oc2ccc(Cl)cc2)cc1 (stereo unspecified)	inactive: 98.7%
CP(=O)(Nc1ccc(SC(F)(F)F)cc1)Oc1ccccc1 (stereo unspecified)	inactive: 130%
COc1ccccc1OP(C)(=O)Nc1c(C)cccc1C (stereo unspecified)	inactive: 99.2%
CN1CCCCC1COC(=O)C1(O)c2ccccc2CCc2ccccc21 (stereo unspecified)	inactive: 104%
CCOC(=O)C(CC)C1=NC(C)(C)Cc2ccccc21.O=[N+]([O-])c1cc([N+](=O)[O-])c(O)c([N+](=O)[O-])c1 (stereo unspecified)	inactive: 98.7%
CC1=C2N=C(C=C3N=C(C(C)=C4[N-][C@@](C)([C@@H]5N=C1[C@](C)(CCC(=O)NC[C@@H](C)OP(=O)([O-])O[C@H]1[C@@H](O)[C@@H](n6cnc7cc(C)c(C)cc76)O[C@@H]1CO)[C@H]5CC(N)=O)[C@@](C)(CC(N)=O)[C@@H]4CCC(N)=O)[C@@](C)(CC(N)=O)[C@@H]3CCC(N)=O)C(C)(C)[C@@H]2CCC(N)=O.[C-]#N.[Co+3]	inactive: 102%
O=[N+]([O-])c1cc([N+](=O)[O-])c(Nc2nnnn2CCO)c([N+](=O)[O-])c1	inactive: 94.4%
Cc1nc2ccc3ccccc3c2s1.O=[N+]([O-])c1cc([N+](=O)[O-])c(O)c([N+](=O)[O-])c1	inactive: 103%
O=[N+]([O-])c1cc([N+](=O)[O-])c(-c2cnn(-c3ccccc3)c2)c([N+](=O)[O-])c1	inactive: 106%
O=[N+]([O-])c1cc([N+](=O)[O-])c(-n2nnc3ccccc32)c([N+](=O)[O-])c1	inactive: 102%
Cc1cc(C)cc(OP(C)(=O)Nc2ccccn2)c1 (stereo unspecified)	inactive: 96.5%
CP(=O)(Nc1cccc(Br)c1)Oc1ccccc1 (stereo unspecified)	inactive: 110%
Cc1ccc(C)c(NP(C)(=O)Oc2ccccc2)c1 (stereo unspecified)	inactive: 105%
Cc1cc(C)cc(OP(C)(=O)Nc2ccc(C)cc2C)c1 (stereo unspecified)	inactive: 108%

Structure (SMILES)	binding (percent of control)
CCOC(=O)c1ccc(NP(C)(=O)Oc2cc(C)cc(C)c2)cc1 (stereo unspecified)	inactive: 94.3%
COc1ccccc1OP(C)(=O)Nc1cccc(Br)c1 (stereo unspecified)	inactive: 95.2%
O=C(O)c1cccc(Nc2c([N+](=O)[O-])cc([N+](=O)[O-])cc2[N+](=O)[O-])c1	inactive: 94.1%
CCCCCOc1ccc(NP(C)(=O)Oc2ccc(Cl)cc2Cl)cc1 (stereo unspecified)	inactive: 99.2%
O=[N+]([O-])c1cc([N+](=O)[O-])c(OC2CCCCC2O)c([N+](=O)[O-])c1 (stereo unspecified)	inactive: 113%
CP(=O)(Nc1ccccc1)Oc1ccc(F)cc1 (stereo unspecified)	inactive: 92.7%
Cc1c([N+](=O)[O-])cc([N+](=O)[O-])c(Br)c1[N+](=O)[O-]	inactive: 116%
COc1ccc(OP(C)(=O)Nc2ccc(SC(F)(F)F)cc2)cc1 (stereo unspecified)	inactive: 106%
CCOC(=O)c1ccc(NP(C)(=O)Oc2ccc(F)cc2)cc1 (stereo unspecified)	inactive: 121%
COc1ccc2c(c1O)-c1c(O)c(OC)cc3c1[C@H](C2)[N+](C)(C)CC3.O=[N+]([O-])c1cc([N+](=O)[O-])c([O-])c([N+](=O)[O-])c1[O-]	inactive: 100%
O=C(OCCN1CCN(CCOCc2ccccc2)CC1)C(O)(c1ccccc1)c1ccccc1	inactive: 127%
O=C(OC1CN2CCC1CC2)c1ccc([N+](=O)[O-])cc1 (stereo unspecified)	inactive: 117%
CC(C)c1ccc(OP(C)(=O)Nc2ccc(SC(F)(F)F)cc2)cc1 (stereo unspecified)	inactive: 102%
CP(=O)(Nc1ccccc1F)Oc1ccccc1 (stereo unspecified)	inactive: 102%
O=[N+]([O-])c1cc([N+](=O)[O-])c(Nc2ccc(Cl)cc2)c([N+](=O)[O-])c1	inactive: 99%
Cc1ccccc1NP(C)(=O)Nc1ccccc1C	inactive: 108%
CP(=O)(Nc1ccc2c(c1)OCCO2)Oc1ccccc1 (stereo unspecified)	inactive: 102%
Cc1c(C(c2ccc3c(c2)OCO3)c2c(C)n(C)n(-c3ccccc3)c2=O)c(=O)n(-c2ccccc2)n1C.O=[N+]([O-])c1cc([N+](=O)[O-])c(O)c([N+](=O)[O-])c1	inactive: 103%
